Read-outs that look alike come from different tables or passages of the source.
Assays:
[1] = tested on: HCT-15 human colon adenocarcinoma; assay: Cell growth inhibition, HCT-15 cells; conditions: HCT-15, colon
[2] = tested on: A-431, carcinoma of the skin; assay: Cell growth inhibition, A-431 cells; conditions: A-431, skin
[3] = tested on: BxPC3, carcinoma of pancreas; assay: Cell growth inhibition, BxPC3 cells; assay type: cell-based, human
[4] = tested on: HT-29 human colon adenocarcinoma; assay: Cell growth inhibition, HT-29 cells; assay type: cell-based
[5] = tested on: MIA-Paca2, carcinoma of pancreas; assay: Cell growth inhibition, MIA-Paca2 cells
[6] = tested on: A549, carcinoma of the lung; assay: Cell growth inhibition, A549 cells
[7] = Body weight and toxicity in wild type and Min mice; conditions: 100 mg/kg/day oral; for Body Weight, End / Body Weight, Start: mean±SD
[8] = tested on: MCF-7, carcinoma of the breast; assay: Cell growth inhibition, MCF-7 cells; conditions: MCF-7, breast
[9] = tested on: SSC-25, squamous cell carcinoma of the tongue; assay: Cell growth inhibition, SSC-25 cells; conditions: SSC-25, tongue
[10] = tested on: LNCaP, carcinoma of the prostate; assay: Cell growth inhibition, LNCaP cells
[11] = tested on: Min (Apcmin/+) mouse model of intestinal cancer; assay: Inhibition of gastrointestinal tumors in Min mice; conditions: 100 mg/kg/day oral gavage, 21 days

4-O-[2-(3-fluoro-4-phenyl)phenyl propionyl]-4-hydroxybenzyl nitrate
IC50 ([1]; 24 hr): 62 µM
IC50 ([1]; 48 hr): 35 µM
IC50 ([1]; 72 hr): 15 µM
IC50 ([2]; 24 hr): 48 µM
IC50 ([2]; 48 hr): 40 µM
IC50 ([2]; 72 hr): 29 µM
IC50 ([3]; 24 hr): 25 µM
IC50 ([3]; 48 hr): 20 µM
IC50 ([4]; HT-29, colon, 24 hr): 49 µM
IC50 ([4]; HT-29, colon, 48 hr): 41 µM
IC50 ([4]; HT-29, colon, 72 hr): 28 µM
IC50 ([5]; 24 hr): 72 µM
IC50 ([5]; 48 hr): 65 µM
IC50 ([6]; 24 hr): 65 µM
IC50 ([6]; 48 hr): 58 µM
effect on body weight of mice ([7]; 21 days): did not affect the body weight
gastrointestinal toxicity at necropsy ([7]; 21 days): no evidence of gastrointestinal toxicity
other toxicity, examination of abdominal organs ([7]; 21 days): No other toxicity was noted
Body Weight, End ([7]; Min mice, 21 days): 17.3 ± 0.3 g
Body Weight, Start ([7]; Min mice): 15.1 ± 0.5 g
Body Weight, End ([7]; Wild type mice, 21 days): 16.7 ± 0.3 g
Body Weight, Start ([7]; Wild type mice): 14.8 ± 0.4 g
IC50 ([8]; 24 hr): 77 µM
IC50 ([8]; 48 hr): 59 µM
IC50 ([9]; 24 hr): 8 µM
IC50 ([9]; 48 hr): 6 µM
IC50 ([10]; 24 hr): 35 µM
IC50 ([10]; 48 hr): 15 µM
tumor size versus vehicle-treated Min mice, on inspection [11]: far smaller
reduction of the number of tumors ([11]; small intestine): 95.6%
number of tumors in treated animals ([11]; small intestine, mean±SD, N=10): 1.4±2.8

2-(acetyloxy)benzoic acid 4-(nitromethyl)phenyl amide
IC50 ([4]; read-out: IC50, HT-29, colon, 24 hr): 25 µM

— patent US7585997B2, “Compounds and compositions for treating dysproliferative diseases, and methods of use thereof” (Chesterford Enterprises Limited, priority 2003, dated 2009)
